Values quoted from earlier work as cited in patent US12186286B2, “Use of senicapoc for treatment of stroke” (Paracelsus Neuroscience II, LLC, priority 2019, dated 2025).

Target: human KCa3.1 (Homo sapiens, UniProt O15554)
Conditions: cited from earlier work

For NC(=O)C(c1ccccc1)(c1ccc(F)cc1)c1ccc(F)cc1 [Senicapoc, senicapoc], the IC50 is listed as 11 nM.
